{"source": "PubChem BioAssay AID504577", "about": "(NMMLSC, 2011)", "note": "This is a selection; strong and weak results do not stand in their true shares. The source made the active and inactive calls. Cut-off read from the data, not from the text of the source: active = response mostly above about 7.3% (no sharp cut-off); inactive = mostly below about 5.4%.", "data": [{"experiment": "yeast vacuolar ATPase proton transport modulators – pHLuorin cytosolic pH fluorescence, primary screen (AID 504577); note: actives read high", "settings": "S. cerevisiae, at 10 µM, stronger effect = higher value", "values": [{"smiles": "COc1ccccc1CNC(=O)COC(=O)C(O)(c1ccccc1)c1ccccc1", "response": "inactive: 2.97%"}, {"smiles": "CC1(CBr)Cn2c(nc3ccccc3c2=O)S1", "note": "(stereo not given)", "response": "inactive: -2.05%"}, {"smiles": "CC(C)/C=N\\N=C(\\N)N[N+](=O)[O-]", "response": "inactive: -1.57%"}, {"smiles": "CN(C(=O)Cc1ccc(Cl)c(Cl)c1)[C@@H]1CCCC[C@H]1N1CCCC1", "response": "inactive: -8.73%"}, {"smiles": "CCOP(=O)(Nc1ccc(C)cn1)OCC", "response": "inactive: 1.61%"}, {"smiles": "O=P1(Nc2ccccn2)COc2ccccc2OC1", "response": "inactive: -3.93%"}, {"smiles": "CCC1=CC2Cc3nc4ccc(Cl)cc4c(N)c3C(C1)C2", "note": "(stereo not given)", "response": "inactive: -0.14%"}, {"smiles": "CCOP(=O)(NC(=NC(C)c1ccccc1)NC(C)c1ccccc1)OCC", "note": "(stereo not given)", "response": "inactive: -6.24%"}, {"smiles": "O=P1(N(CCCl)CCCl)NCCC(C(F)(F)F)O1", "note": "(stereo not given)", "response": "inactive: 2.06%"}, {"smiles": "Clc1n[nH]nc1-c1nn[nH][15n]1", "response": "inactive: 4.14%"}, {"smiles": "CC(C)(C)C(=O)NC(Sc1ncccn1)C(Cl)(Cl)Cl", "note": "(stereo not given)", "response": "inactive: -2.35%"}, {"smiles": "O=P1(Nc2ncccn2)COc2ccccc2OC1", "response": "inactive: -0.42%"}, {"smiles": "Cc1ccc(OCC(=O)OC2CN3CCC2CC3)cc1", "note": "(stereo not given)", "response": "inactive: -3.37%"}, {"smiles": "O=[As](O)(c1cccs1)c1cccs1", "response": "inactive: -0.19%"}, {"smiles": "O=P1(Nc2ccc(Br)cn2)COc2ccccc2OC1", "response": "inactive: -0.33%"}, {"smiles": "NS(=O)(=O)c1cccc(NC(=O)COC(=O)C(O)(c2ccccc2)c2ccccc2)c1", "response": "inactive: -0.67%"}, {"smiles": "Nc1cccc([As](=O)(O)c2ccccc2)c1", "response": "inactive: -4.12%"}, {"smiles": "Cc1nn(-c2ccccc2)c2c1P(=O)(N1CCOCC1)N(C)C(c1ccccc1)=N2", "note": "(stereo not given)", "response": "inactive: -0.99%"}, {"smiles": "CC1CCC(C(C)C)C(OP(=O)(Nc2ccccn2)c2ccccc2)C1", "note": "(stereo not given)", "response": "inactive: 5.45%"}, {"smiles": "Cc1ccc(C(=O)OC2CN3CCC2CC3)cc1", "note": "(stereo not given)", "response": "inactive: 1.15%"}, {"smiles": "O=C(/C=C/c1ccccc1)OC1CN2CCC1CC2", "note": "(stereo not given)", "response": "inactive: -1.39%"}, {"smiles": "CCCC1OP(=O)(Nc2ccccc2)OCC1CC", "note": "(stereo not given)", "response": "inactive: -0.81%"}, {"smiles": "CN(C)C1(CNC(=O)c2ccc(S(C)(=O)=O)cc2)CCCCC1", "response": "inactive: 6.48%"}, {"smiles": "NC(=O)Nc1ccc([As](=O)(O)O)cc1", "response": "inactive: 5.09%"}, {"smiles": "O=[N+]([O-])c1ccc2c(c1)nnn2O", "response": "inactive: -2.71%"}, {"smiles": "CN(C)C(=O)c1cc([N+](=O)[O-])cc2c1-c1c(cc([N+](=O)[O-])cc1[N+](=O)[O-])C2=O", "response": "inactive: 3.42%"}, {"smiles": "CN(C(=O)Cc1ccc(Cl)c(Cl)c1)[C@H]1CC[C@@]2(CCCO2)C[C@@H]1N1CCCC1", "response": "inactive: -0.62%"}, {"smiles": "N#CCCN(C(=O)COC(=O)C(O)(c1ccccc1)c1ccccc1)c1ccc(F)cc1", "response": "inactive: 0.57%"}, {"smiles": "CCOP1(=S)c2c(C)nn(CCC#N)c2N=C(c2ccc(F)cc2)N1C", "note": "(stereo not given)", "response": "inactive: -1.29%"}, {"smiles": "CN(C(=O)Cc1ccccc1)[C@@H]1CC[C@]2(CCCO2)C[C@H]1N1CCCC1", "response": "inactive: 0.95%"}, {"smiles": "CS(=O)(=O)c1cc([N+](=O)[O-])c2no[n+]([O-])c2c1", "response": "inactive: -1.89%"}, {"smiles": "CCOP1(=S)c2c(C)nn(CCC#N)c2N=C(c2ccccc2F)N1C", "note": "(stereo not given)", "response": "inactive: -3.77%"}, {"smiles": "O=P(Nc1nccs1)(Oc1ccccc1)Oc1ccccc1", "response": "inactive: 0.15%"}, {"smiles": "O=P(Nc1nccs1)(c1ccccc1)c1nc2ccccc2s1", "note": "(stereo not given)", "response": "inactive: 2.82%"}, {"smiles": "Nc1ccccc1[As](=O)(O)c1ccccc1", "response": "inactive: 2.23%"}, {"smiles": "O=C(O)COc1ccc([As](=O)(O)O)cc1[N+](=O)[O-]", "response": "inactive: -1.47%"}, {"smiles": "CCCOP(=S)(Nc1nc(N)cc(=O)[nH]1)OCCC", "response": "inactive: 1.2%"}, {"smiles": "Cc1ccc(NCCc2c([N+](=O)[O-])cc([N+](=O)[O-])cc2[N+](=O)[O-])cc1", "response": "inactive: -2.14%"}, {"smiles": "Nc1cccc2c([As](=O)(O)O)cccc12", "response": "inactive: -2.18%"}, {"smiles": "COc1cc(C2NCCC3(OCCO3)C2(C)C)cc(OC)c1OC", "note": "(stereo not given)", "response": "inactive: 0.27%"}, {"smiles": "CCOP(=O)(Nc1cccc2ccccc12)OCC", "response": "inactive: 0.24%"}, {"smiles": "O=[As](O)(O)c1cccnc1", "response": "inactive: -2.17%"}, {"smiles": "COc1cc(C(=O)NCC2(N3CCOCC3)CCCCC2)cc(Cl)c1OC(C)C", "response": "inactive: -2.65%"}, {"smiles": "CS(=O)(=O)c1ccc(Cl)c(NC(=O)COC(=O)C(O)(c2ccccc2)c2ccccc2)c1", "response": "inactive: -3.28%"}, {"smiles": "O=C(OC1CN2CCC1CC2)c1ccc(Cl)cc1", "note": "(stereo not given)", "response": "inactive: -4.32%"}, {"smiles": "Cc1cccc(OCC(=O)OC2CN3CCC2CC3)c1", "note": "(stereo not given)", "response": "inactive: -0.93%"}, {"smiles": "O=[As](O)(c1cccc(O)c1)c1cccc(O)c1", "response": "inactive: -1.51%"}, {"smiles": "COc1ccc(N/C(=N/P(=O)(N2CCOCC2)N2CCOCC2)N2CCOCC2)cc1", "response": "inactive: -7.64%"}, {"smiles": "O=[N+]([O-])c1cc(Oc2ccc([N+](=O)[O-])cc2C(F)(F)F)cc([N+](=O)[O-])c1", "response": "inactive: -3.37%"}, {"smiles": "O=C(OC1CN2CCC1CC2)C12CC3CC(CC(C3)C1)C2", "note": "(stereo not given)", "response": "inactive: 2.23%"}]}]}
